Screening data from PubChem.
NR1D1 modulator = modulates human Rev-erb alpha binding to DNA; P20393; Rev-erbα–FITC-DNA binding, fluorescence polarization, 90 min; activity, % at 10 µM; 370,000 compounds, 0.79% hits; AID 1259318;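 active = activity above about 14%, limit read from the data; passing the limit was not always enough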;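 note: 0% = DMSO wells with 35 nM protein and 100% = DMSO wells with 750 nM protein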
ERp5 inh = ERp5 (human) disulfide isomerase inhibition; inhibition, % at 9.99 µM; AID 651711; ERp5 insulin aggregation, absorbance 650 nm, 90 min; 350,000 compounds, 0.05% hits;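 active = mean replicate inhibition above about 25%, with every replicate also reaching it, limit read from the data, passing the limit was not always enough; inconclusive = only one of those two criteria met; inactive = neither criterion met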
INS-1E GSIS act = GLuc luminescence reporter in INS-1E cells, primary screen for activators of glucose-dependent secretion of insulin; AID 743287; activation, % at 16.6 µM; 370,000 compounds, 0.61% hits; INS-1E GLuc reporter insulin secretion, 2-3 h;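 active = lowest replicate activation of at least 40%, so every replicate reaches that level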;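 note: 0% = median of neutral control wells and 100% = median of IBMX positive control wells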
PDI turbidity = blocks human protein disulfide isomerase activity; inhibition, % at 10 µM; PDI insulin aggregation turbidity, A650, 90 min; AID 588391; 350,000 compounds, 0.052% hits;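 active = mean inhibition across replicates of 30% or more, whatever share of single replicates reach that level; inconclusive = mean inhibition below 30% while every single replicate reaches 30%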
Yeast UUG start = alters start codon recognition fidelity in yeast. S. cerevisiae UUG-firefly luciferase reporter, luminescence/redox ratio. activity score, % at 18.7 µM. 0.13% of 350,000 active. AID 602363;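 active = replicate mean at a twofold rise or more, about +100% in these data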;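 also: firefly luciferase made from a UUG start codon reports start codon fidelity; reporter light over untreated wells divided by growth signal over untreated wells; some hits fall short of that in this replicate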
SMARCA2 activ = SMARCA2 function activation, primary screen; MG213 cells, MMTV-luciferase reporter, dexamethasone, overnight; activation, % at 9.1 µM; 370,000 compounds, 1% hits; in the data active = activation above about 7.8%;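 note: 0% = vehicle wells and 100% = reference activator wells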
Rev-erbA confirm = confirmation of modulators of human Rev-erb alpha DNA binding; shares compounds with NR1D1 modulator; Rev-erb alpha FITC-DNA binding, fluorescence polarization, 90 min; activation, % at 25 µM; 3,000 compounds, 61% hits; AID 1259319;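 active = activation at or above a set limit, or at least 3 SD above the negative control mean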;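 note: 0% = 35 nM protein with DMSO and 100% = 750 nM protein high control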
RORg DNA counter = counter-screen for Rev-erb alpha modulators: RORgamma DNA binding; IC50, µM; 910 compounds, 8% hits; shares compounds with NR1D1 modulator; AID 1259320; purified RORgamma protein-FITC-DNA binding, fluorescence polarization;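 active = Compounds whose fitted half-maximal concentration for disrupting protein-DNA binding is below 10 micromolar; the record names Rev-erb in its text, so the target is in doubt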
Starred values were filed as active, the others as inactive; ? = inconclusive; . = no result given. Sampled rows, rich in hits. Any-hit rate of the full collection: about 2.1%.

SMILES	NR1D1 modulator	ERp5 inh	INS-1E GSIS act	PDI turbidity	Yeast UUG start	SMARCA2 activ	Rev-erbA confirm	others
Cc1ccc(Oc2nccc(-c3ccc(Cl)cc3)n2)cc1	47*	.	.	-8	.	2	46*	RORg DNA counter=>40
O=C1NC(c2ccc3c(c2)OCO3)c2c(-c3ccccc3)n[nH]c21 (stereo not drawn)	-5	-1	33	.	.	1	.
CC(C)c1[nH]nc2c1C(c1ccc3c(c1)OCO3)NC2=O (stereo not drawn)	22*	0	31	.	.	0	-5
COc1ccccc1C=C(C(=O)c1ccccc1)c1ccccc1	18*	2	-1	.	.	-3	5
COc1ccccc1/C=C(/C(=O)OCC(N)=O)c1ccccc1	1	0	2	-4	6	0	.
C[C@@H]1CN([C@H](C)CO)C(=O)c2cc(NC(=O)CCN3CCOCC3)ccc2O[C@@H]1CN(C)C(=O)Nc1ccc2c(c1)OCO2	.	-6	6	.	-10	.	.
Cc1ccc(S(=O)(=O)Nc2cccc3c2O[C@H](CN(C)C(=O)Nc2ccccc2)[C@H](C)CN([C@H](C)CO)C3=O)cc1	.	-11	-13	.	15	.	.
Cc1ccc2[nH]cc(S(=O)(=O)c3ccc(F)cc3)c(=O)c2c1	3	3	15	10	.	-4	.
CCOc1ccc(S(=O)(=O)c2c[nH]c3ccc(C)cc3c2=O)cc1	31*	5	14	6	-15	2	20*
CO[C@H]1CN(C)C(=O)c2cc(NC(=O)C3CC3)ccc2OC[C@@H](C)N(CC2CCCC2)C[C@@H]1C	.	4	6	.	-10	.	.
O=C(O)CN(CCN(CC(=O)O)CC(=O)O)CC(=O)O	50*	.	.	.	.	.	3
CCOc1ccc2nc(N/C(N)=N/C(=S)Nc3cccc(C)c3)nc(C)c2c1	35*	-1	5	10	-35	-1	37*	RORg DNA counter=>40
Cc1ccc(NC(=S)/N=C(\N)Nc2nc(C)c3cc(C)c(C)cc3n2)cc1C	27*	?	-4	10	-25	-2	-1
CCOc1ccc2nc(N/C(N)=N/C(=S)Nc3cccc(OC)c3)nc(C)c2c1	32*	1	0	-13	.	1	3
COc1ccc2nc(N/C(N)=N/C(=S)Nc3cccc(C)c3)nc(C)c2c1	4	.	.	11	-22	3	.
CC[C@H]1CC=CC[C@@H](C)Oc2ccccc2C(=O)N(C)[C@@H](C(C)C)C(=O)N1 (mixture of isomers)	.	.	13	.	.	.	.
Cc1cc(C)cc(NC(=S)/C(=C(\[O-])c2ccc(Cl)s2)[n+]2cccc(C)c2)c1	5	-4	1	2	.	-1	.
Cc1cc(C)cc(NC(=S)/C(=C(\[O-])c2ccc(Cl)cc2Cl)[n+]2ccc(C(C)(C)C)cc2)c1	36*	1	16	6	.	1	31*	RORg DNA counter=7.9*
O=S(=O)(c1ccccc1)c1nc(-c2ccccc2)oc1N1CCCCC1	-4	.	2	-9	-23	-2	.
O=S(=O)(c1ccccc1)c1nc(-c2ccccc2)oc1N1CCCC1	16*	-8	-9	0	-11	-3	-7

Brought forward from above: 3 compounds; new compounds follow.
SMILES	NR1D1 modulator	ERp5 inh	INS-1E GSIS act	PDI turbidity	Yeast UUG start	SMARCA2 activ	Rev-erbA confirm	others
Cc1cc(C)cc(NC(=S)/C(=C(\[O-])c2ccc(Cl)cc2Cl)[n+]2ccc(C(C)(C)C)cc2)c1	36*	1	16	6	.	1	31*	RORg DNA counter=7.9*
O=S(=O)(c1ccccc1)c1nc(-c2ccccc2)oc1N1CCCCC1	-4	.	2	-9	-23	-2	.
O=S(=O)(c1ccccc1)c1nc(-c2ccccc2)oc1N1CCCC1	16*	-8	-9	0	-11	-3	-7
N#Cc1c(N)nc(SCC(=O)NC2CCCCC2)c(C#N)c1-c1ccc(Cl)cc1	24*	.	60	-11	-4	-3	25*
CCOC(=O)CSc1nc(N)c(C#N)c(-c2ccc(OCC)cc2)c1C#N	56*	.	.	-3	-22	-1	29*
Nn1c(SCC(=O)NC2CCCCC2)nnc1-c1ccc(Cl)cc1	-3	.	.	-10	.	-3	.
Cc1ccc2cc(C#N)c(SCC(=O)N3CCCC3)nc2c1	-2	2	7	-8	-31	2	.
CC(C)OC(=O)CSc1nc(N)c(C#N)c(-c2ccco2)c1C#N	2	.	.	-2	10	0	.
CC(C)c1ccc(-c2c(C#N)c(N)nc(SCC(=O)N3CCCCC3)c2C#N)cc1	83*	.	.	-9	-21	0	69*	RORg DNA counter=>40
CC(C)c1ccc(-c2c(C#N)c(N)nc(SCC(=O)N3CCCCCC3)c2C#N)cc1	52*	.	.	.	.	-1	9
COC(=O)CSc1nc(N)c(C#N)c(-c2ccc(O)cc2)c1C#N	-5	-1	22	-2	-19	-1	.
